scFv variants of Ab-14 (heavy chain) against a SARS-CoV-2 spike peptide

Target: peptide PDVDLGDISGINAS, taken from heptad repeat 2 (HR2) of SARS-CoV-2 spike.

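AAYL49 was designed without a model: most single CDR substitutions and a random sample of double and triple ones. In AlphaSeq, yeast of one mating type display the scFv and yeast of the other type display the target. Pairs that bind mate more often; barcode pairs of the diploids are counted by sequencing. Each replicate has its own calibration line, from reference interactions of the BCL2 family. Mating was done three times.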

Parent scFv Ab-14: VH joined to VL by a (GGGGS)3 linker. Changes lie in the heavy chain CDRs alone.
VH: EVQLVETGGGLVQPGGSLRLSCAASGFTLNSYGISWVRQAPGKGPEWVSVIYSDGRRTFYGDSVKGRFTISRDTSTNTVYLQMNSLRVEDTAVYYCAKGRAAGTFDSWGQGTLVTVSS
VL: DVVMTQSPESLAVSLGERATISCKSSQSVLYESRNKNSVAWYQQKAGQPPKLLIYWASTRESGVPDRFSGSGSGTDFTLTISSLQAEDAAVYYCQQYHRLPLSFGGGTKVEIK

Each variant's VH is given in full.
Kd is apparent (estimated from mating counts) and averaged on the log scale over replicates with a signal. Smaller is tighter.
"nd" marks a missing value. The strain was present, yet no cells mated with the target were sequenced in any replicate, which points to weak or no binding.
Three control strains display no target. For library AAYL49, 15% of the pairings with them gave a signal, with a median of 11 µM and one signal in twenty below 680 nM, so weak values seen in few replicates may be background.
Parent in this assay: reference entry 4.4 nM, copy in this library 13 µM (one replicate of three).

| # | VH | Kd (apparent) | seen in |
|---|---|---|---|
| 1 | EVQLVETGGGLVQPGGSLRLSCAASGFTLNSYGISWVRQAPGKGPEWVSVIYSRGRRTFCGDSVKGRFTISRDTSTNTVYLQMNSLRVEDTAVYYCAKGRAAITFDSWGQGTLVTVSS | 7.2 µM | 1/3 |
| 2 | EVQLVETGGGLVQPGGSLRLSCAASGFTYNWYGISWVRQAPGKGPEWVSVIYSDGRRTFYGDSVKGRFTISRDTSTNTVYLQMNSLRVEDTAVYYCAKGRAGGTFDSWGQGTLVTVSS | nd | 0/3 |
| 3 | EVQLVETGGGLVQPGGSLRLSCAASGFTLNSYGISWVRQAPGKGPEWVSVSYSDGRRTFVGDSVYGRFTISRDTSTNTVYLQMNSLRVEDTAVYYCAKGRAAGTFDSWGQGTLVTVSS | nd | 0/3 |
| 4 | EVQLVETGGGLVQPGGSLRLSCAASGPTLNSYGDSWVRQAPGKGPEWVSVIYSDGRRTFYGDSVKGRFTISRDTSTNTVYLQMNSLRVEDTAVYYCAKLRAAGTFDSWGQGTLVTVSS | nd | 0/3 |
| 5 | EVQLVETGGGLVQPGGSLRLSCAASGFTLNSYGISWVRQAPGKGPEWVSVIYSDGRRTIYGDSVKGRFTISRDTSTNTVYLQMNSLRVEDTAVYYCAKGRAAGTFWDWGQGTLVTVSS | nd | 0/3 |
| 6 | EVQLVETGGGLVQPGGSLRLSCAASGFTLNSRGISWVRQAPGKGPEWVSVSYSDGRRTFYVDSVKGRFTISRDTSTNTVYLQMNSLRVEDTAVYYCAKGRAAGTFDSWGQGTLVTVSS | nd | 0/3 |
| 7 | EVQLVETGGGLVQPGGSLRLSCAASGFTLNSYGISWVRQAPGKGPEWVSVIYYDGRSTFWGDSVKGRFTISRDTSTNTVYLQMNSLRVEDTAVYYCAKGRAAGTFDSWGQGTLVTVSS | nd | 0/3 |
| 8 | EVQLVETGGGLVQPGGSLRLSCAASGFTLNSYGISWVRQAPGKGPEWVSVIWSGGRRTFYGDSVKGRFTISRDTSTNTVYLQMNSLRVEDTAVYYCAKGRAYGTFDSWGQGTLVTVSS | nd | 0/3 |
| 9 | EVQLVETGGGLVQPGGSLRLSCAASGFTLNSYGISWVRQAPGKGPEWVSVIYSDGRRTKYGDQVKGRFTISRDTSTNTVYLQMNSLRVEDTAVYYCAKKRAAGTFDSWGQGTLVTVSS | 19 nM | 3/3 |
| 10 | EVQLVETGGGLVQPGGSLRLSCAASGFTLNSYGISWVRQAPGKGPEWVSVIYPDGYRTFYEDSVKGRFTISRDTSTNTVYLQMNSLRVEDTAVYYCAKGRAAGTFDSWGQGTLVTVSS | 140 nM | 2/3 |
| 11 | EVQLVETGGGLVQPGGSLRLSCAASTFTLNSYGISWVRQAPGKGPEWVSVIYSDGRRTFYPDSVKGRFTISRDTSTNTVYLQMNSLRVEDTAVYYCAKGRTAGTFDSWGQGTLVTVSS | nd | 0/3 |
| 12 | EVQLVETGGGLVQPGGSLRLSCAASRFTVNSYGISWVRQAPGKGPEWVSVIYSDGRRTFYGDSVKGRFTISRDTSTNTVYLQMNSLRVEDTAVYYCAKGRAAGTLDSWGQGTLVTVSS | 20 nM | 3/3 |
| 13 | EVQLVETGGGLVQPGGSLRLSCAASGFTLESYGISWVRQAPGKGPEWVSVIYSDGRRMFYGDSVKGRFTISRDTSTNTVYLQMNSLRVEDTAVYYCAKGRAAITFDSWGQGTLVTVSS | nd | 0/3 |
| 14 | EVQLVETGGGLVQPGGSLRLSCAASGFTLNSYGISWVRQAPGKGPEWVSVIPSDHSRTFYGDSVKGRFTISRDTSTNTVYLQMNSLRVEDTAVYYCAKGRAAGTFDSWGQGTLVTVSS | 40 µM | 1/3 |
| 15 | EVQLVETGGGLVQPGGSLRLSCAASGFFLVSYGISWVRQAPGKGPEWVSVIYSDGRRTFYADSVKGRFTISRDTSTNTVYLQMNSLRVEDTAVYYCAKGRAAGTFDSWGQGTLVTVSS | 70 nM | 3/3 |
| 16 | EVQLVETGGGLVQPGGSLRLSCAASGFTLNSYGISWVRQAPGKGPEWVSSIYSQGRRTFYGDSVKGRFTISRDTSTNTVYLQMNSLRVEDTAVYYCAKGRAAETFDSWGQGTLVTVSS | 500 µM | 1/3 |
| 17 | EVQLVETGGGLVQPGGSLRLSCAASGFTLNWYGISWVRQAPGKGPEWVSVKYSDGRRTFYGDSVKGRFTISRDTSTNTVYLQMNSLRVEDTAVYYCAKGRAAGTFASWGQGTLVTVSS | nd | 0/3 |
| 18 | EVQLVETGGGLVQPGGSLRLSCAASGHTLNSYGISWVRQAPGKGPEWVSVIYSDGRRTFYGDSVTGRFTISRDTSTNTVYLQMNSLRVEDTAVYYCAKGRAAGTFDKWGQGTLVTVSS | 17 µM | 2/3 |
| 19 | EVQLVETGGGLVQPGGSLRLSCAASGFTYNSYGISWVRQAPGKGPEWVSVIYSTGRRTFYGDSVKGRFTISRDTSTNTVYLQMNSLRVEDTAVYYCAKGRAAGTEDSWGQGTLVTVSS | nd | 0/3 |
| 20 | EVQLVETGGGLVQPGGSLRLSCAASGFTLNSYGISWVRQAPGKGPEWVSVIYSDRRRYFYGDSVKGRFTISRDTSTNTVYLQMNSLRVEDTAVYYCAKGRAAGTFGSWGQGTLVTVSS | 500 µM | 1/3 |
| 21 | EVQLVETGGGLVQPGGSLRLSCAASGFTLNSYGISWVRQAPGKGPEWVSVIYSDGRRTFTGDSVYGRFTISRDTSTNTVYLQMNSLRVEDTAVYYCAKGRAAGTFDSWGQGTLVTVSS | 970 µM | 1/3 |
| 22 | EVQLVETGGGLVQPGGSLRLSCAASGLTLNSYGIYWVRQAPGKGPEWVSVIYSDGRCTFYGDSVKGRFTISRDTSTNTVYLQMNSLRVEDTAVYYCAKGRAAGTFDSWGQGTLVTVSS | nd | 0/3 |
| 23 | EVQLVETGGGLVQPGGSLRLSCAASGFTLNSYGISWVRQAPGKGPEWVSVIYSVGRRFFYGDSVKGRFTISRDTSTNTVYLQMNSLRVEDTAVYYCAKGRAAGTFDSWGQGTLVTVSS | 17 µM | 1/3 |
| 24 | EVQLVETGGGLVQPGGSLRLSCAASGFTLNSYKISWVRQAPGKGPEWVSVIYSDGRMTFYGDSVKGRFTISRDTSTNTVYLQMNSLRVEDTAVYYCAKGRAAGTDDSWGQGTLVTVSS | 16 µM | 1/3 |
| 25 | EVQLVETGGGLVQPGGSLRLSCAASGFTLNSYGISWVRQAPGKGPEWVSVIYSDGRREAYGDSVKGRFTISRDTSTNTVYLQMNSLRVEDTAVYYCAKGRAGGTFDSWGQGTLVTVSS | 4.1 nM | 3/3 |
| 26 | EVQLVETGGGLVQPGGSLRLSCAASGFTLNSYGISWVRQAPGKGPEWVSVIYSDGRRTFCGGSVKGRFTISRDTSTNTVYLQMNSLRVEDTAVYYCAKGRDAGTFDSWGQGTLVTVSS | 18 µM | 2/3 |

Repeated from above, the 3 best binders with a signal in all replicates:

VH,Kd (apparent),seen in
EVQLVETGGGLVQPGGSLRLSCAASGFTLNSYGISWVRQAPGKGPEWVSVIYSDGRREAYGDSVKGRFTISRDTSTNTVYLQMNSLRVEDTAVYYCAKGRAGGTFDSWGQGTLVTVSS,4.1 nM,3/3
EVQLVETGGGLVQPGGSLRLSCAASGFTLNSYGISWVRQAPGKGPEWVSVIYSDGRRTKYGDQVKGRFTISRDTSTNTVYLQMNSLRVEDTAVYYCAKKRAAGTFDSWGQGTLVTVSS,19 nM,3/3
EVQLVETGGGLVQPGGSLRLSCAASRFTVNSYGISWVRQAPGKGPEWVSVIYSDGRRTFYGDSVKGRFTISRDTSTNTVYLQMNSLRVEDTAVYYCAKGRAAGTLDSWGQGTLVTVSS,20 nM,3/3

Source: Engelhart et al. 2022 (doi:10.1038/s41597-022-01779-4), MIT Lincoln Laboratory and A-Alpha Bio; data file from the FLAb repository.